## Binding of CDR-mutated scFvs to a peptide of the spike HR2 region

Reference: Engelhart et al. 2022, doi:10.1038/s41597-022-01779-4. File: FLAb, binding data.

Target: peptide PDVDLGDISGINAS, taken from heptad repeat 2 (HR2) of SARS-CoV-2 spike.

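Variants in AAYL52 differ from the parent at up to three CDR positions; double and triple changes were sampled at random. The scFvs were displayed on barcoded MATa yeast, the peptide on MATalpha yeast. Pairs that bind mate more often; barcode pairs of the diploids are counted by sequencing. Scores were corrected for input abundance and mapped to Kd with protein pairs of known affinity run in the same pool. Each pool was mated in three replicate cultures.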

Parent scFv Ab-95: VH joined to VL by three GGGGS repeats. Changes lie in the light chain CDRs alone.
VH: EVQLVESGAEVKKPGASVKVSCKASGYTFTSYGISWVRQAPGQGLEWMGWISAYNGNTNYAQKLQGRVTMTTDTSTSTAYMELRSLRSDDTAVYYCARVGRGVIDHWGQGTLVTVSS
VL: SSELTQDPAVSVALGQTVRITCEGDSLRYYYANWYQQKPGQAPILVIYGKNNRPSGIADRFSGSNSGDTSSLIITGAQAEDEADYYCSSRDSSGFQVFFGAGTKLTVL

Changes read parent residue, position, new residue, counted from the first residue of the VL shown. Affinities are written as log10 Kd with Kd in nM; a lower number is a better binder. "n.d." means that the variant was in the library but no mating with the target was seen in that replicate; the authors take this as a sign of poor binding, and no number exists. For reference, the parent read 2.31 as the reference entry and 2.25 as a member of this library. Three control strains display no target. For library AAYL52, 28% of the pairings with them gave a signal, with a median of 3.91 and one signal in twenty below 2.90, so weak values seen in few replicates may be background. Also given: how often the same scFv was detected with the empty control strains, with their mean in brackets.

changes | replicates, log10 nM | control signals
S26H A32G K50E | 3.01 3.51 4.22 | 2/9 (3.56)
N33G D91L | n.d. n.d. 2.91 | 1/9 (4.10)
A32T N33S Q96T | 4.62 n.d. n.d. | 3/9 (4.43)
E23N S93W F98Y | n.d. n.d. n.d. | 0/9
A32V S55F S92G | 4.34 3.52 3.41 | 3/9 (4.23)
D25F Y30D S88K | 2.49 2.99 2.41 | 5/9 (4.55)
L27I A32I R90N | n.d. n.d. n.d. | 2/9 (2.93)
N33F R90I Q96D | 4.23 n.d. 4.08 | 2/9 (3.85)
K50D S88D | n.d. n.d. n.d. | 1/9 (2.79)
G24P P54W | 5.03 4.60 2.24 | 3/9 (3.70)
K50P G94K | 1.80 1.69 1.26 | 2/9 (3.50)
R90Y V97I F98H | n.d. n.d. 2.41 | 2/9 (3.36)
E23H D91W V97S | n.d. n.d. n.d. | 0/9
S26A Y29V D91C | 3.31 4.37 2.78 | 1/9 (3.11)
E23N S89Q F95N | 2.77 2.70 n.d. | 0/9
L27I R53K S55L | 3.37 2.67 2.27 | 1/9 (3.34)
D25F G49C S88H | 4.02 n.d. n.d. | 5/9 (4.18)
S88Y S89C D91F | 5.08 n.d. 4.10 | 2/9 (5.01)
G24R D25R V97N | 4.23 n.d. n.d. | 4/9 (3.92)
P54T | 2.43 2.58 2.47 | 5/9 (3.65)
A32D S88T F98S | n.d. n.d. n.d. | 2/9 (4.32)
E23M G24P F95W | n.d. n.d. n.d. | 1/9 (4.58)
Y29I Y30K V97K | 4.31 n.d. n.d. | 1/9 (2.49)
S89R | 5.07 n.d. n.d. | 1/9 (3.64)
N51Y F98G | 4.07 4.04 4.37 | 4/9 (3.93)
L27M Y29I Q96P | 4.72 4.66 n.d. | 2/9 (3.86)
Y29R S88G V97C | 3.83 2.64 1.92 | 0/9
L27W Y30Q S93T | 3.22 3.16 3.55 | 3/9 (4.02)
L27S N51P Q96Y | 3.71 4.07 4.13 | 3/9 (4.00)
G24T R90T F98S | 4.58 4.02 4.26 | 6/9 (4.42)
N52C S55Y Q96L | 5.48 4.81 3.27 | 6/9 (3.87)
R53C F98I | n.d. 3.49 3.95 | 5/9 (3.56)
N33H D91M Q96R | n.d. n.d. n.d. | 4/9 (3.93)
Y29L N33A N51H | 3.97 n.d. 3.44 | 1/9 (4.81)
S93D G94P | 2.33 2.54 1.81 | 2/9 (3.61)
Y30A Y31G S93A | 1.91 1.78 1.41 | 4/9 (3.72)
A32M G49E G94R | n.d. n.d. n.d. | 2/9 (3.37)
R90N Q96D | 4.98 4.66 n.d. | 4/9 (4.03)
S26N D91S V97P | 3.74 n.d. 3.58 | 4/9 (3.81)
G24P R53D F98I | 4.44 5.21 4.13 | 2/9 (4.05)
R28K S89D V97E | n.d. n.d. n.d. | 0/9
G24S R28P A32Y | 2.35 2.56 2.10 | 4/9 (4.16)

The closing 4 entries, repeated:

changes | replicates, log10 nM | control signals
S26N D91S V97P | 3.74 n.d. 3.58 | 4/9 (3.81)
G24P R53D F98I | 4.44 5.21 4.13 | 2/9 (4.05)
R28K S89D V97E | n.d. n.d. n.d. | 0/9
G24S R28P A32Y | 2.35 2.56 2.10 | 4/9 (4.16)